Target: NET (Rattus norvegicus, UniProt Q63380)
Assay: Inhibition of [3H]norepinephrine reuptake at NET in rat brain synaptosomes
Type: biochemical

Protein sequences, listed by entry. Tags and fused reporters are not part of them. Residues count along the entry.
UniProt Q63380, 1-617: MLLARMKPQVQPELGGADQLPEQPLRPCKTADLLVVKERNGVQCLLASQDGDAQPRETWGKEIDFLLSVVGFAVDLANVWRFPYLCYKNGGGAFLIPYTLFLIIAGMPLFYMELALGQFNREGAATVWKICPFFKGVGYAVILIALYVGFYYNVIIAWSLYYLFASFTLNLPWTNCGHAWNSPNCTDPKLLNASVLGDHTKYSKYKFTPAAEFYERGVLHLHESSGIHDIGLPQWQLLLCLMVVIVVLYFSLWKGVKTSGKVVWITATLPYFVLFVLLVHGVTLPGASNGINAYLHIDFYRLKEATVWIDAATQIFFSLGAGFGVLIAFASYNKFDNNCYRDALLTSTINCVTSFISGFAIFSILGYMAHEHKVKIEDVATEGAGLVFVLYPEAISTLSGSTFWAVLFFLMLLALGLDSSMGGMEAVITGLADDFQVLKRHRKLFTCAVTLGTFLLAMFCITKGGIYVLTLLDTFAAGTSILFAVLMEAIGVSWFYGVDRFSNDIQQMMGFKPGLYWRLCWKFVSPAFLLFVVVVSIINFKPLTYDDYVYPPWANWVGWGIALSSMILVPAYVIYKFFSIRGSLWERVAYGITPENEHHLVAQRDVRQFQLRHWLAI

`COC(=O)[C@H]1[C@@H](OC(=O)c2ccccc2)C[C@@H]2CC[C@H]1N2C` [(−)cocaine, cocaine, reference compound] showed an IC50 of 396 ± 47.8 nM.
